In paper PMC6421407, “Activation of GCN2 by the ribosomal P-stalk” (Proceedings of the National Academy of Sciences of the …, 2019):

Molecular target: human general control nonderepressible 2 (GCN2), full-length, StrepII-tagged (human) (UniProt Q9P2K8)

“recombinant human P-stalk complex, full-length (uL10/P1/P2 heteropentamer: uL10 bound to two P1-P2 heterodimers) (from UniProt P05388 1-317; P05386 1-114; P05387 1-115)” showed an EC50 for activation of GCN2-mediated phosphorylation of eIF2α, titration of the P-stalk complex of 250 nM and a fold increase in GCN2 activity (eIF2α phosphorylation) at the highest P-stalk concentration measured (2.5 μM) of 40 fold.
